# Measurements from ChEMBL document CHEMBL1921782.
# By UniProt entry, the sequences of proteins in these tests, tags left out.
# UniProt P35367, whole entry: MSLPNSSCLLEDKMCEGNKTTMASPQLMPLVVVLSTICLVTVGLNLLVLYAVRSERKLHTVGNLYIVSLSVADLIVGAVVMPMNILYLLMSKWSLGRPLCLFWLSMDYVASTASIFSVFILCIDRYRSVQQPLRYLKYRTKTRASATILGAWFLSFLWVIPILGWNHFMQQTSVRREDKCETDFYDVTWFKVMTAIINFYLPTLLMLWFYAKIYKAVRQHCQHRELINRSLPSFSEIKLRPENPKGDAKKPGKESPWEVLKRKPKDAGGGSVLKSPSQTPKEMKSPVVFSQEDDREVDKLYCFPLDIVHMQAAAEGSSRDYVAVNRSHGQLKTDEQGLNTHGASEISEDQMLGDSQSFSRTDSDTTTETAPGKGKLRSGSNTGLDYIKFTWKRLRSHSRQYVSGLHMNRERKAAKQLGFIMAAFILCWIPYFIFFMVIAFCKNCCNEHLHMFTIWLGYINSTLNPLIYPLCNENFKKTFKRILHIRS
# Biological target: Histamine H1 receptor (Homo sapiens, UniProt P35367)
# Test: biochemical
row,Ki [µM],SMILES
1,8.13,NCCSc1nc(C2CCCCC2)n(-c2ccccc2)n1
2,5.37,OCCN1CCN(c2ncnc3c2oc2ccccc23)CC1

row,SMILES,Ki [µM]
1,Cc1cccc2c(CCN)cn(Cc3ccccc3)c12,0.537
